Molecular target: MAO-B (Mus musculus, UniProt Q8BW75)
Test: in vivo
Conditions: po, read-out: ED50 potentiation of PEA-induced symptoms

Protein sequences, listed by entry. Tags and fused reporters are not part of them.
UniProt Q8BW75, whole entry: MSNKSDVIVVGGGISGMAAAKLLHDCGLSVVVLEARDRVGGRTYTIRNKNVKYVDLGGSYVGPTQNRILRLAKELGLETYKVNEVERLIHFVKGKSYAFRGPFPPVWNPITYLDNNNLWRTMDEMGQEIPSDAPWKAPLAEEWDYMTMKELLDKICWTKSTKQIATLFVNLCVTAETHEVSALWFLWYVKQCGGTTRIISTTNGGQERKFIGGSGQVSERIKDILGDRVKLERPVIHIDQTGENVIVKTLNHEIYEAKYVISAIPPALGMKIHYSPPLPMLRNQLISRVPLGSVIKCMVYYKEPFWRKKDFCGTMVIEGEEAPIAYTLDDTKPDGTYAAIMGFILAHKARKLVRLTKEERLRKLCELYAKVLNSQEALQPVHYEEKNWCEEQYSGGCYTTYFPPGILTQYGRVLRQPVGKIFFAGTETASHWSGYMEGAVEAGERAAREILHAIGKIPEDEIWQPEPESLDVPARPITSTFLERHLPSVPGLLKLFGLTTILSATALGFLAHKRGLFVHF

Q: For C#CCN(C)[C@H](C)Cc1ccccc1 [SLG, selegiline], which ED50 at 25 mg/kg is on record?
A: The ED50 at 25 mg/kg was 8 mg/kg.

Source: article PMC7259601 (PLoS ONE, 2020)
